# Results published in PubChem BioAssay AID686970 (National Center for Advancing Translational Sciences (NCATS), 2013).
# The list shows a part of the results, in another mix than the full data. Inconclusive results are not listed. Active and inactive are the calls of the source. The call rests on the fitted dose curve; in most records, active means well fitted cell-killing curve with a large enough effect; inconclusive means small, poorly fitted or top-dose-only effect, or effect the other way; inactive means flat fitted curve, though single readings scatter.
# Assay: qHTS for induction of synthetic lethality in tumor cells producing 2HG: qHTS for the HT-1080-NT fibrosarcoma cell line;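 further: NT is the 2HG producing partner of a matched IDH1 knockdown line; 0% = DMSO-treated cells and -100% = media-only wells without cells; nearly all actives have a fitted effect of over 55% in size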
# Details: HT-1080-NT fibrosarcoma viability, CellTiter-Glo ATP luminescence, 48 h; at 46.1 µM (top of the series) unless noted
row,SMILES,"activity, negative = less viability"
1,CCCOc1ccc(C(=O)NCC2(N(C)C)CCCCC2)cc1OC,inactive: -1.79%
2,Cc1ccc(C(=O)NCC2(N(C)C)CCCCC2)o1,inactive: 7.69%
3,O=C(OC1CN2CCC1CC2)c1ccc([N+](=O)[O-])cc1 (centres undefined),inactive: -1.87%
4,O=C(NCC1(N2CCCCC2)CCCCC1)c1cncc(Br)c1,inactive: 0%
5,CN1CCC(Nc2cccc(F)c2)CC1,inactive: 5.54%
6,N#CC1(Nc2ccccc2)CCN(CCc2ccccc2)CC1,inactive: 12.2%
7,O=c1[nH]c2ccccc2n1C1CCN(C(c2ccccc2OC(F)(F)F)c2nnnn2C2CCCC2)CC1 (centres undefined),inactive: 3.89%
8,CCN1CCC(Nc2ccc(Cl)cc2)CC1,inactive: -1.11%
9,O=C(NCC1(N2CCCCC2)CCCCC1)c1cccc([N+](=O)[O-])c1,inactive: -3.52%
10,CSc1ccc(C(=O)NCC2(N3CCOCC3)CCCCC2)cc1,inactive: -2.46%
11,O=C(NCC1(N2CCCCC2)CCCCC1)c1ccc(OC(F)F)cc1,inactive: -0.251%
12,COc1cc(C(=O)NCC2(N3CCCCC3)CCCCC2)ccc1OC(F)F,inactive: 7.99%
13,O=C(NCC1(N2CCOCC2)CCCCC1)c1cc(=O)[nH]c2ccccc12,inactive: -3.71%
14,CN1CCN(CCOC(=O)C(O)(c2ccccc2)c2ccccc2)CC1,inactive: 6.27%
15,CC(C)c1ccc(C(=O)NCC2(N3CCOCC3)CCCCC2)cc1,inactive: -7.02%
16,COc1ccc(NC2CCN(C(=O)OC(C)(C)C)CC2)cc1,inactive: -19.9%
17,O=[N+]([O-])c1cc([N+](=O)[O-])c(NCC2CCS(=O)(=O)C2)c([N+](=O)[O-])c1 (centres undefined),inactive: -0.565%
18,O=C(NCC1(N2CCCCC2)CCCCC1)c1cccc(C(F)(F)F)c1,inactive: -14.4%
19,COc1ccc(NC2CCN(CCc3ccccc3)CC2)c(OC)c1,inactive: -1.68%
20,CCOC(=O)N1CCC(Nc2ccc(F)cc2)CC1,inactive: 2.1%
21,O=C(NCC1(N2CCCCC2)CCCCC1)c1ccc(F)cc1,inactive: 1.19%
22,O=P1(N(CCCl)CCCl)SCCCS1,inactive: -2.25%
23,CCCCOc1ccc(C(=O)NCC2(N3CCOCC3)CCCCC2)cc1,inactive: 10.3%
24,O=C1CCN(Cc2ccccc2)CC1,inactive: -1.88%
25,CC(C)(C)n1nnnc1C(c1ccccc1)N1CCC(n2c(=O)[nH]c3ccccc32)CC1 (centres undefined),inactive: -1.41%

row,SMILES,"activity, negative = less viability"
1,CCOc1ccc(C)cc1CN(CCCl)CCCl,inactive: -0.586%
2,COc1cc(C(=O)NCC2(N(C)C)CCCCC2)ccc1OC(F)F,inactive: -3.5%
3,CCOC(=O)N1CCC(Nc2cccc(C)c2)CC1,inactive: 12.2%
4,O=c1[nH]c2ccccc2n1C1CCN(C(c2ccccc2)c2nnnn2C2CCCCC2)CC1 (centres undefined),inactive: 2.12%
5,Cc1cccc(NC2(C#N)CCN(Cc3ccccc3)CC2)c1,inactive: 21.1%
6,CSc1ccccc1C(=O)NCC1(N2CCCCC2)CCCCC1,inactive: 0.147%
7,CCC(c1nnnn1C1CCCC1)N1CCC(n2c(=O)[nH]c3ccccc32)CC1 (centres undefined),inactive: 20.6%
8,CC(C)(C)OC(=O)N1CCC(N(C(=O)c2ccccc2)c2ccc(F)cc2)CC1,inactive: 14.5%
9,COc1ccc(C(=O)NCC2(N3CCCCC3)CCCCC2)c(OC)c1OC,inactive: -12.9%
10,COc1ccc(C(=O)NCC2(N3CCCCC3)CCCCC2)cc1,inactive: -1.6%
11,O=C(NCC1(N2CCCCC2)CCCCC1)c1cccs1,inactive: 1.23%
12,CCCCn1nnnc1C(CC)N1CCC(n2c(=O)[nH]c3ccccc32)CC1 (centres undefined),inactive: 5.56%
13,O=C(NCC1(N2CCCCC2)CCCCC1)c1ccc(=O)[nH]c1,inactive: -1.03%
14,O=C1C(O)=C([N+](=O)[O-])C(=O)C(O)=C1[N+](=O)[O-],inactive: 13.4%
15,COc1ccc(Cl)cc1C(=O)NCC1(N2CCOCC2)CCCCC1,inactive: -0.0527%
16,O=C(OC1CN2CCC1CC2)C1c2ccccc2Oc2ccccc21 (centres undefined),inactive: -6.99%
17,O=c1[nH]c2ccccc2n1C1CCN(C(c2cc3ccccc3o2)c2nnnn2C2CCCCC2)CC1 (centres undefined),inactive: 2.07%
18,O=C(NCC1(N2CCCCC2)CCCCC1)c1ccc(Cl)s1,inactive: -8.36%
19,N#CC1(Nc2ccccc2)CCN(Cc2ccccc2)CC1,inactive: -6.58%
20,CCCCn1nnnc1C(c1ccc(OC)cc1)N1CCC(n2c(=O)[nH]c3ccccc32)CC1 (centres undefined),inactive: -7.87%
21,CCOC(=O)N1CCC(Nc2ccc(OC)cc2)CC1,inactive: 3.44%
22,O=c1[nH]c2ccccc2n1C1CCN(C(c2ccccc2OC(F)(F)F)c2nnnn2C2CCCCC2)CC1 (centres undefined),inactive: 16.8%
23,O=C(NCC1(N2CCCCC2)CCCCC1)c1ccc(Cl)nc1,inactive: -0.409%
24,O=C(NCC1(N2CCOCC2)CCCCC1)c1cc2ccccc2o1,inactive: 3.73%
